The values below come from PMC5799093, “Proceedings of Réanimation 2018, the French Intensive Care Society International Congress” (Annals of Intensive Care, 2018).

For this experiment, the system named is Klebsiella pneumoniae.

`O=C(O)c1cn(C2CC2)c2cc(N3CCNCC3)c(F)cc2c1=O` [ciprofloxacin] had a resistance rate of 68%.
